Values quoted from earlier work as cited in patent US6124275A, “Methods and compositions for controlling a pest population” (priority 1999, dated 2000).

Tested on: rats
Conditions: Merck Index; cited from earlier work

**Q.** Which LD50 does the source give for `O=C(OCc1ccccc1)c1ccccc1O` [BS, benzyl salicylate] here?
**A.** Its LD50 is 2,227 mg/Kg.
